The record followed here is patent US10711036B2, “MALT1 inhibitors and uses thereof” (Cornell University, priority 2015, dated 2020).

Amino acid sequences for entries named in this document (tags omitted).
UniProt Q9UDY8, whole entry: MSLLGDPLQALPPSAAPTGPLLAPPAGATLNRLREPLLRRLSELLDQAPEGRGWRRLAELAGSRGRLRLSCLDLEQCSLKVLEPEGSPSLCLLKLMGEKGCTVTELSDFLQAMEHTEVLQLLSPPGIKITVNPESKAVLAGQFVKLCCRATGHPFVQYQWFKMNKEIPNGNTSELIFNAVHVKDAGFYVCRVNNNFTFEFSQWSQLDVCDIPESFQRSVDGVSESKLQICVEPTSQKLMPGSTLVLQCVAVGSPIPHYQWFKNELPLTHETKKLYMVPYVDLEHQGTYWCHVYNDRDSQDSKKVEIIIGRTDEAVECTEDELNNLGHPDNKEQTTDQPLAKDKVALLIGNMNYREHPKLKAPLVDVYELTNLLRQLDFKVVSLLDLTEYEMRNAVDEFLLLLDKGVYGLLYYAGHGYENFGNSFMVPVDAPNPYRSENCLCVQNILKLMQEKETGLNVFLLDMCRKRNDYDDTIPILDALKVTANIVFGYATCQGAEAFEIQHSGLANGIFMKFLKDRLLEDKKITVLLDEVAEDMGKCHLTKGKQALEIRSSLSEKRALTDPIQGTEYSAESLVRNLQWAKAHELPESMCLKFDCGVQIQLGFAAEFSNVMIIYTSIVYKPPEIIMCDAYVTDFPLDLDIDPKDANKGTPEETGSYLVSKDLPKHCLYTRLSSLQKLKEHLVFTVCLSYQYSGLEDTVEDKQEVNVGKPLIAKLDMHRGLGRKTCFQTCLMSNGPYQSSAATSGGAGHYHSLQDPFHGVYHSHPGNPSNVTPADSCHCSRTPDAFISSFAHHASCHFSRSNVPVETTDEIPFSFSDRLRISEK

One assay has as its system OCI-LY3. Description: Maximum killing effect on OCI-LY3. The protocol:
(§1) The maximum killing effects on cell-lines OCI-LY3, TMD8, and OCI-LY1 were also measured for select compounds at inhibitor concentration of 20 μM and 5 μM. TMD8 is another line of ABC type diffuse large-B cell lymphoma, while OCI-LY1 is a DLBCL line of the germinal center B-cell subtype. Table E12 lists the measured killing effect for Z-VRPR-fmk, mepazine, and exemplary compounds of the disclosure at concentration of 20 μM or 5 μM.

In the next assay the test system is OCI-LY1. In words: Maximum killing effect on OCI-LY1. On the procedure:
as §1

For a further assay, the target named is MALT1 (Homo sapiens (Human), UniProt Q9UDY8). In words: Inhibition constants (Ki) for inhibition of MALT1. Particulars: read-out: MALT1 Ki; 100 nM MALT1 used for the assay. On the procedure:
For exemplary compounds of the disclosure, Ki for inhibition of MALT1 was measured (Table E11). A concentration of 100 nM MALT1 was used for the assay.

Another assay has as its system TMD8. In words: Maximum killing effect on TMD8. Particulars: TMD8, 20 μM. The protocol: as §1
The subject of the next assay is RelB cleavage. Description: Western blot for RelB cleavage in OCI-LY3 cells. Particulars: OCI-LY3 cells pretreated with inhibitor, then 5 μM MG-132 for 2 hours. On the procedure:
FIG. 1A. Western blots for RelB and MALT1 after 30 minutes pretreatment with indicated doses of compounds or vehicle, followed by proteasome inhibitor MG-132 (5 μM) treatment for 2 hours in OCI-LY3. clev=cleavage product of RelB.
FIG. 1B. Western blots for RelB with indicated doses of compounds or vehicle in OCI-LY3.
Western blot: OCI-Ly3 cells (a line of human diffuse large B-cell lymphoma (ABC type)) were pre-treated for 30 minutes with indicated doses of MALT1 inhibitors followed by a 2-hour treatment with proteasome inhibitor MG-132 at 5 μM. Protein was then extracted in a PBS-based lysis buffer containing 1% NP-40. Equal amounts of total protein (50 to 75 μg) were separated on sodium dodecyl sulfate-polyacrylamide gel electrophoresis (SDS-PAGE), and electrotransferred onto nitrocellulose membranes. Membranes were incubated with primary antibodies (MALT1, from Santa Cruz Biotechnologies, Santa Cruz, Calif.; RELB from Cell Signaling, Danvers, Mass., and α-Tubulin from Sigma), followed by secondary antibodies conjugated to horseradish peroxidase, which were detected by chemiluminescence (Pierce, Thermo Scientific, Rockford, Ill.).
Western blots for RelB and MALT1 show inhibition of RelB cleavage by inhibitors 202, 109, 116, 203, 112, and 107. […]
(In general: A western blot detects proteins with antibodies after separation by electrophoresis.)

One may read the Ki as the equilibrium dissociation constant of an inhibitor or competing ligand from its target. On to `CC(C)C[C@H](NC(=O)OCc1ccccc1)C(=O)N[C@H](C(=O)N1CCC[C@H]1C(=O)N[C@@H](CCCNC(=N)N)C(=O)CF)C(C)C`, for which the Maximum killing effect in the assay with OCI-LY3 (OCI-LY3, 5 μM) is 71%; in the assay on OCI-LY3 (OCI-LY3, 20 μM) it was 87%; with OCI-LY1 (OCI-LY1, 5 μM), 6%; with OCI-LY1 (OCI-LY1, 20 μM) it was under 0%; with TMD8, 59%. Also, the Ki at MALT1 was 90 nM. Further, the “Inhibition of RelB cleavage (Western blot)” value in the assay on RelB cleavage is given as “inhibition of RelB cleavage”.

As for `CC(C)C[C@@H](C(=O)N[C@H](C(=O)N1CCC[C@H]1C(=O)N[C@@H](CCCNC(=N)N)C(=O)CF)C(C)C)N(C)C`, on MALT1, the Ki worked out at 120 nM.
